Reference: US12048783B2, “2,4-disubstituted pyridines as malodor counteracting ingredients” (FIRMENICH SA, priority 2017, dated 2024)

Molecular target: T1, OR51E1 (Homo sapiens, UniProt Q8TCB6)
T1 construct: expressed in transfected cells
T1 sequence (Q8TCB6 1-318): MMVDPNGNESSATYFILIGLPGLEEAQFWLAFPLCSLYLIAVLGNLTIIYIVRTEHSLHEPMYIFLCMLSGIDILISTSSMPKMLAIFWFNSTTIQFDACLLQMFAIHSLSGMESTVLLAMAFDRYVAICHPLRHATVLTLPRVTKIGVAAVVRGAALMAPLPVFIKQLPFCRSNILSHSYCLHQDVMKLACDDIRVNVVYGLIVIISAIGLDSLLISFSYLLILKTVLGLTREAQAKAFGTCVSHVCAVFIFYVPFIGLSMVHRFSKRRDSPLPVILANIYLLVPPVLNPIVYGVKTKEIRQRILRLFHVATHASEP
Assay: Inhibition of malodor compound induced olfactory receptor activity in stable cell lines
Type: cell-based
Conditions: inhibition of OR51E1 activity in presence of a single activating concentration of butyric acid

EC50 for 4-methyl-2-pentyl-pyridine: OR51E1: Weak
SMILES: CCCCCc1cc(C)ccn1
